Experiments:
[1] = tested on: human lymphoblast line (MIT-2); assay: Cell survival and growth of human lymphoblasts after mutagen treatment (soft-agar plating, particle counts); conditions: 24 h treatment: EMS 840, MNU 50, MNNG .225, BUdR 50, ICR-191 1.25 μM
[2] = tested on: human lymphoblast line (MIT-2); assay: Mutagenesis assay: 6TG-resistant mutant fraction in diploid human lymphoblasts; conditions: for INDUCED MUTANT FRACTION: 24 h treatment: EMS 840, MNU 50, MNNG .225, BUdR 50, ICR-191 1.25 μM, control 0.05 to 0.40 × 10^-4; for number of divisions required for full phenotypic expression: MIT-2, FIG. 4

In the case of `COc1ccc2nc3cc(Cl)ccc3c(NCCCNCCCl)c2c1`, the “EST. INITIAL GROWTH DELAY” value [1] was 3 to 4 days, the “PERCENT SURVIVING” value ([1]; cloning efficiency at 24 hours) was 18% and the “INDUCED MUTANT FRACTION” value [2] was 5.6 × 10^4. For the same molecule, the “number of divisions required for full phenotypic expression” value [2] was 16 divisions.
For `O=c1[nH]c(=O)n([C@H]2C[C@H](O)[C@@H](CO)O2)cc1Br`, the “INDUCED MUTANT FRACTION” value [2] was 4.2 × 10^4.
With `CCOS(C)(=O)=O` [EMS, ethyl methane sulphonate] the “INDUCED MUTANT FRACTION” value [2] was 6.9 × 10^4 and the “number of divisions required for full phenotypic expression” value [2] was 9 divisions.
For `CN(N=O)C(N)=O` [MNU, methylnitrosourea], the “time at which 6TG^R cells were found” value ([2]; 8 μg/ml MNU) was “by the eighth day after treatment”, the “plating efficiency of 6TG^R cells, stable maximum” value ([2]; 8 μg/ml MNU, plated in 10 μg/ml 6TG) was 1.3 × 10^-4 observed clones per plated particle and the “observed mutant fraction on days 8 and 10” value ([2]; 8 μg/ml MNU, same as before treatment) was 4 × 10^-5. The “mutant fraction, stable maximum” value ([2]; 8 μg/ml MNU, stable on days 16-22) was 4.6 × 10^-4 6TG^R clones per total plated clones, the “INDUCED MUTANT FRACTION” value [2] was 4.8 × 10^4 and the “observed mutant fraction as a function of MNU concentration, higher range” value ([2]; beginning between 6 and 8 μg/ml and lasting through 12 μg/ml) was “much faster rate of increase”. The “observed mutant fraction as a function of MNU concentration, lower range” value ([2]; dose range of 0.6 μg/ml of MNU (so in the source)) was “a monotonic increase in mutant fraction seemed to occur” and the “final mutant fraction versus untreated controls” value ([2]; five other MNU-treated cultures) was “significantly greater than the untreated controls”.
